Laboratory results taken from patent publication US8987273B2, “Substituted imidazo[1,2-B]pyridazines” (Bayer Intellectual Property GmbH, priority 2010, dated 2015).

Protein sequences, listed by entry. Tags and fused reporters are not part of them. Lines headed by an entry give the natural chain unless they say otherwise; changes in a name come on top.
UniProt P31751: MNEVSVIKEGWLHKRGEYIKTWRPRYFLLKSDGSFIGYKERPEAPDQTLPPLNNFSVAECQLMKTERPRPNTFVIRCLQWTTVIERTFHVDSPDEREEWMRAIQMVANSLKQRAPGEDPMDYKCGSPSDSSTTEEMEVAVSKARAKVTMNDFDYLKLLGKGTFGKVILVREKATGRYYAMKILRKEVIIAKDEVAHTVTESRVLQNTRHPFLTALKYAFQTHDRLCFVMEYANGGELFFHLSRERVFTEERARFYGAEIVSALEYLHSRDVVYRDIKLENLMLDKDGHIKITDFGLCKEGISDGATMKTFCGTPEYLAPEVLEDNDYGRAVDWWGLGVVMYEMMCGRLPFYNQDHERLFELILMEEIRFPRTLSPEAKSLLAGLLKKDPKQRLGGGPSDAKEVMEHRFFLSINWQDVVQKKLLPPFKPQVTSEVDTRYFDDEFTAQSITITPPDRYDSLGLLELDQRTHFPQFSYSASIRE

Target: His-tagged human recombinant kinase full-length Akt2 (Homo sapiens (Human), UniProt P31751)
Assay: Akt2 kinase assay (TR-FRET)
Format: biochemical
Conditions: 10 μM ATP; median
From the text: Akt2 inhibitory activity of compounds of the present invention was quantified employing the Akt2 TR-FRET assay as described in the following paragraphs.
His-tagged human recombinant kinase full-length Akt2 expressed in insect cells and activated by PDK1 was purchased form Invitrogen (part number PV 3975). As substrate for the kinase reaction the biotinylated peptide biotin-Ahx-[…] (C-terminus in amide form) was used which can be purchased e.g. from the company Biosynthan GmbH (Berlin-Buch, Germany). […]
The resulting mixture was incubated 1 h at 22° C. to allow the binding of the biotinylated phosphorylated peptide to the streptavidine-XL665 and the antibodies. Subsequently the amount of phosphorylated substrate was evaluated by measurement of the resonance energy transfer from the anti-mouse-IgG-Eu-Chelate to the streptavidine-XL665. Therefore, the fluorescence emissions at 620 nm and 665 nm after excitation at 350 nm was measured in a TR-FRET reader, e.g. a Rubystar (BMG Labtechnologies, Offenburg, Germany) or a Viewlux (Perkin-Elmer). […]

IC50: 20 µM
Compound: CCc1c(C)nc2cc(-c3ccccc3)c(-c3ccc(C4(N)CCC4)cc3)nn12 [Example 13-0, 1-[4-(3-Ethyl-2-methyl-7-phenyl-imidazo[1,2-b]pyridazin-6-yl)-phenyl]-cyclobutylamine]
